Measured values taken from patent US11806555B2, “Methods for treating hair loss disorders” (THE TRUSTEES OF COLUMBIA UNIVERSITY IN THE CITY OF NEW YORK, priority 2010, dated 2023).

Tested on: Granzyme B expression and IFNγ production

Compound | IL-15-induced LAK cell Granzyme B expression and IFNγ production
CC1CCN(C(=O)CC#N)CC1N(C)c1ncnc2[nH]ccc12 (centres unmarked) [tofacitinib] | inhibit
tofacitinib | inhibits
